In the experiment the target is OX1R (Homo sapiens, UniProt O43613). Kind of experiment: OX1R assay of WO2013/187466 (fluorescence, intracellular Ca2+). It counts as cell-based. The settings on record: from IC50 values described in WO2013/187466.

Sequences of proteins named here, by UniProt entry; tags and fusion partners are left off.
UniProt O43613, whole entry, species assumed: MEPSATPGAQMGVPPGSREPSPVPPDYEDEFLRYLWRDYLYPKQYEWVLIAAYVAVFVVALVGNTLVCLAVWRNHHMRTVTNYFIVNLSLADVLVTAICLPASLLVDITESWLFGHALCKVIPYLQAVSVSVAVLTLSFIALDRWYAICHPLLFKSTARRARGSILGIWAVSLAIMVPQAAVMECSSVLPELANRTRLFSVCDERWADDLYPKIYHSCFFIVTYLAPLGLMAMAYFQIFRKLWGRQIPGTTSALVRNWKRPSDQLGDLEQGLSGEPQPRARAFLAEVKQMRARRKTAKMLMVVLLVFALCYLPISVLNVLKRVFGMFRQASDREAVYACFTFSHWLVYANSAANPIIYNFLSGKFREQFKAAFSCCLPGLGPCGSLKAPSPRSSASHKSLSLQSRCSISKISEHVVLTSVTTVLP

With `CCN(C(=O)c1cc(F)ccc1-c1ncccn1)[C@@H](C)Cn1nnc(-c2ccc(F)cc2)n1` [Example 70 in WO2013/187466], the “OX2R IC50/OX1R IC50” value was determined as 411.

Source of the values: patent US10738031B2, “N-[(heteroaryloxy)propanyl]heteroaryl carboxamides as antagonists of orexin subtype 1 receptor activity” (Boehringer Ingelheim International GmbH, priority 2016, dated 2020).
